For this data set the following is noted: mouse, in vivo.

Turning to “2-thiol-5-((2-(2-methoxyethoxy)ethoxy)methyl)pyridine-N-oxide, Zn complex [5-PEG-[2]-ZnHPT]”, the “maximum tested without evidence of toxicity” value was at least 120 µmol/kg. As to “2-thiol-5-((2-methoxyethoxy)methyl)pyridine-N-oxide, Zn complex [5-PEG-[1]-ZnHPT]”, the “maximum tested without evidence of toxicity” value is at least 100 µmol/kg.

(Values after patent US7838536B2, “Water-soluble zinc ionophores, zinc chelators, and/or zinc complexes and use for treating cancer” (priority 2006, dated 2010).)
